Results reported in ChEMBL document CHEMBL4828707, “Discovery of phenyl-linked symmetric small molecules as inhibitors of the programmed cell death-1/programmed cell death-ligand 1 interaction” (Eur J Med Chem, 2021).

Sequences of proteins named here, by UniProt entry; tags and fusion partners are left off. A change or cut given only in a name is not applied to a line headed by its entry.
UniProt Q15116: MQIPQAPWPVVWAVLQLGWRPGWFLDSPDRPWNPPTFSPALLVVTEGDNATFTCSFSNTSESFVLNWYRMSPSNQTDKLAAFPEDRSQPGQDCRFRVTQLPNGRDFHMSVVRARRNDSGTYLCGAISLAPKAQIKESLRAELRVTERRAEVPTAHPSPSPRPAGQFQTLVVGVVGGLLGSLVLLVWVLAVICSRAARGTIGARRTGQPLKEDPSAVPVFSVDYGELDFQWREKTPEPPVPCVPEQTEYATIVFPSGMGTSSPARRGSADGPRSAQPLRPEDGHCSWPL
UniProt Q9NZQ7: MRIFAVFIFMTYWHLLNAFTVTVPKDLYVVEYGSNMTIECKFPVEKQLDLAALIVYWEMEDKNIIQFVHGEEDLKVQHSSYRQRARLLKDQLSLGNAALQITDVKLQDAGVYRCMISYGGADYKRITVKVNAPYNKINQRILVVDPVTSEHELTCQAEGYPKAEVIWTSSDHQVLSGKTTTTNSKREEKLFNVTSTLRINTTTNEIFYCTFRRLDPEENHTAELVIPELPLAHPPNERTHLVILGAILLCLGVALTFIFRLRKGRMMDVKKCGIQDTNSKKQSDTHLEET

The molecules below were run against T1, Programmed cell death protein 1/Programmed cell death 1 ligand 1 (Homo sapiens, UniProt Q15116+Q9NZQ7) (assay: Inhibition of Tag2-PD1/Tag1-PD-L1 (unknown origin) protein-protein interaction preincubated for 15 mins followed by addition of anti-Tag1-Eu3+ and anti-Tag2-XL665 at 5 uM measured after 2 hrs in dark by HTRF assay). Settings: time 135.0 min.
Format: protein-complex assay

Row | SMILES | inhibition
1 | Cc1c(-c2ccc3c(c2)CCCN(CCO)C3)cccc1-c1ccc2c(c1)OCCO2 | 2.76%
2 | Cc1c(-c2ccc3c(c2)OC(=O)N(CC(=O)O)C3)cccc1-c1ccc2c(c1)OCCO2 | 0.54%
3 | Cc1c(-c2ccc3c(c2)NCC(=O)N(CCO)C3)cccc1-c1ccc2c(c1)OCCO2 | 12.5%
4 | Cc1c(-c2ccc3c(c2)OC(=O)N(CCO)C3)cccc1-c1ccc2c(c1)OCCO2 | 25.2%

What follows are molecules tested against T1, Programmed cell death protein 1/Programmed cell death 1 ligand 1 (assay: Inhibition of Tag2-PD1/Tag1-PD-L1 (unknown origin) protein-protein interaction preincubated for 15 mins followed by addition of anti-Tag1-Eu3+ and anti-Tag2-XL665 at 1 uM measured after 2 hrs in dark by HTRF assay). Settings: time 135.0 min.
Format: protein-complex assay

Row | SMILES | inhibition
5 | COc1cc(-c2cccc(-c3ccc4c(c3)OCCO4)c2C)ccc1CNCCO | 94%
6 | Cc1c(-c2ccc3c(c2)OCCO3)cccc1-c1ccc(CNCCO)s1 | 65.4%
